The text below walks through data of ChEMBL document CHEMBL3297660, “Combination of cyclohexane and piperazine based κ-opioid receptor agonists: Synthesis and pharmacological evaluation of trans,trans-configured perhydroquinoxalines” (Bioorg Med Chem, 2014).

Amino acid sequences for entries named in this document (tags omitted). A change or cut given only in a name is not applied to a line headed by its entry.
UniProt P41144: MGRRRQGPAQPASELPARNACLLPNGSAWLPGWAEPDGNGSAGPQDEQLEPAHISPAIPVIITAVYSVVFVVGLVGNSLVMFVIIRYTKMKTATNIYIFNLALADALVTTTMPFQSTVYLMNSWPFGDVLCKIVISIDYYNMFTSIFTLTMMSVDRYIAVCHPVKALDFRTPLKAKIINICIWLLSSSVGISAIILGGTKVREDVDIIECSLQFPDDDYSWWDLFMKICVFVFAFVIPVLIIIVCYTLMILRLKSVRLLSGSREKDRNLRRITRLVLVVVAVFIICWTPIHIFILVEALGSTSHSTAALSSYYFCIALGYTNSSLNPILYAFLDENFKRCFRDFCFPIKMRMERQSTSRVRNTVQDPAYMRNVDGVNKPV

Each structure is given as a SMILES string.

As a reminder, the inhibition is the percentage by which the read-out fell short of the control. A lower inhibition goes with a weak effect.

The test addresses Kappa-type opioid receptor (Cavia porcellus) (UniProt P41144). The conditions noted are these: Brain, Membrane, 1 uM.
In the case of `O=C1N[C@@H]2[C@@H](NCc3ccccc3)CCC[C@H]2N(Cc2ccccc2)C1=O` (mixture of isomers), the inhibition came out at 0%.
Regarding `O=C1N[C@H]2[C@@H](CCC[C@@H]2N2CCCC2)N(Cc2ccccc2)C1=O` (relative stereo), the inhibition amounted to 3%.
`N[C@H]1CCC[C@@H]2[C@@H]1NC(=O)C(=O)N2Cc1ccccc1` (racemic) returned an inhibition of 0%.
With `c1ccc(CN2CCN[C@H]3[C@H]2CCC[C@@H]3N2CCCC2)cc1` (mixture of isomers), the inhibition is 2%.
